Patent publication US20020123080A1, “Inhibiting proliferation of cancer cells” (Tufts University, priority 1996, published 2002)

Test system: MCF-7 cells
Test: MCF-7 cell proliferation yield assay (nuclei counted after 4 days) with or without hormone
Type: cell-based, human
Details: 4 days in ITDME plus test preparation; nuclei counted on Coulter Counter; FIG. 4 dose response
Method: A clonal population of the human breast cancer MCF-7 cell line was used in some of the experiments described below. These cells were routinely grown in 5% fetal bovine serum (FBS) supplemented-Dulbecco's Modified Eagle's Medium (DME). Charcoal-dextran (CD) stripped serum-supplemented medium inhibits their proliferation and estradiol cancels this effect. Estrogen non-target, serum-insensitive human breast cancer MDA-MB231 cells (ATCC, Rockville, Md.) were used as controls; they were grown under the same conditions as MCF-7 cells.
To assess the inhibitory effect of serum or purified protein preparations, 4×10^4 cells/well were seeded in 12-well Falcon Multiplates in 5% FBS; they were allowed to attach for 24 h before exposing them to test medium. Cell proliferation yields were measured after 4 days in DME plus 25 ug transferrin (T)/ml and 100 ng insulin (I)/ml ([…]) alone, or ITDME plus CD human serum (CDHuS), or purified protein preparations. Each sample was tested in duplicate in the presence or absence of 100 pM estradiol (E2) and each experiment was repeated at least three times. Phenol red-free media were used in all experiments involving cell proliferation rates or yields. Cells were lysed and nuclei counted on a Coulter Counter Model ZM. Estrogens were removed from serum, HA (Sigma Chemical Co.; cat. no. A1887) and from rHA preparations by CD stripping. […]

| Substance | inhibition of proliferation of MCF-7 cells |
| --- | --- |
| CDHA: human albumin (HA, Sigma cat. no. A1887) with estrogens removed by CD stripping | inhibited the proliferation of MCF-7 cells in a dose-dependent manner |
| rHA: recombinant human albumin from Delta Biotechnology Ltd., produced in yeast | inhibited the proliferation of these cells |
